Reference: US20060058286A1, “Methods of treating HIV infection” (priority 2004, published 2006)

Test system: HIV-1 NL4-3
Experiment: Two-drug combination study with Compound 1 (combination indices)
Format: cell-based
Conditions: combination with Compound 1, EC50 ratio 2.5:1 (Compound 1:comparator); 95% CI in parentheses
Method: Virus and cell lines. The T-cell line, MT-2 was obtained through the AIDS Research and Reference Reagent Program, NIAID and was contributed by Dr. D. Richman. The cell line was cultured in RPMI 1640 medium supplemented with 10% fetal bovine serum, 2 mM L-glutamine and sub-cultured twice a week. The NL4-3 strain of HIV-1 was obtained from the AIDS Research and Reference Reagent Program. Both virus stocks were amplified and titered in MT-2 cells using a virus infectivity assay.
Drug Susceptibility and Cytotoxicity Assays. For drug susceptibility assays, MT-2 cells were infected with HIV-1 NL4-3 at an MOI of 0.001, and seeded into 96-well microtiter plates (2.5×10^5 cells/ml) containing serial dilutions of test compounds. […] On day-five post-infection, 20 μl from each well was harvested and quantitated by a reverse transcriptase (RT) assay or an MTS assay. […] Cell viability was determined by an XTT assay. The CC50 values were calculated by using the exponential form of the median effect equation as mentioned below for calculation of EC50.
Analysis of Drug Combination Effects. For determination of CI values, drugs were diluted in a fixed ratio and multiple ratios were analyzed. […]
To assess antiviral effects of different drug combination treatments, combination indices (CIs) were calculated according to Chou and Rideout. […]

With `CC(C)(C)NC(=O)[C@@H]1C[C@@H]2CCCC[C@@H]2CN1C[C@@H](O)[C@H](Cc1ccccc1)NC(=O)[C@H](CC(N)=O)NC(=O)c1ccc2ccccc2n1` [Saquinavir, saquinavir] as the compound, how does the “Combination Indices at 90% HIV Inhibition (Confidence Interval)” value read?
Its value is 0.82 (0.49, 1.15).
